## Ab-14 light chain CDR variants: yeast mating affinities

Target: peptide PDVDLGDISGINAS, taken from heptad repeat 2 (HR2) of SARS-CoV-2 spike.

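The starting antibody came from a phage panning campaign against this peptide. Designed CDR sequences, proposed from the first random library and measured here. Group labels follow the data file (Ctrl: baseline library sampled from a position-specific scoring matrix, with some repeated check sequences; Rand: our label for a block that the file lists under HC and that is probably the random mutants of the ten best first-round binders; En: ensemble of fine-tuned language models; GP: Gaussian process model; HC: hill climbing; Gen: genetic algorithm; Gibbs: Gibbs sampling; a sequence that several methods proposed may carry one label only). The scFvs were displayed on barcoded MATa yeast, the peptide on MATalpha yeast. The frequency of each diploid, read from paired DNA barcodes, reflects how well the two displayed proteins bind. A regression on co-assayed BCL2-family reference pairs converts the normalised counts of each replicate to an apparent Kd. Each pool was mated in six replicate cultures.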

The variants keep the heavy chain, the linker and the frameworks of Ab-14 (scFv order VH, three GGGGS repeats, VL).
VH: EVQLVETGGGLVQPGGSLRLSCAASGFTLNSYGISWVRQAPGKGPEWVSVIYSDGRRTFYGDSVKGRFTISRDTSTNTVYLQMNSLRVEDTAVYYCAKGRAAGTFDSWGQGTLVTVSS
VL: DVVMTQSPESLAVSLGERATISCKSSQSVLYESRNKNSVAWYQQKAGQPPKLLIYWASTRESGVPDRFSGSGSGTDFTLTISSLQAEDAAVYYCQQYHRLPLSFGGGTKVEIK

Variants are written as CDR1, CDR2 and CDR3 of the light chain (limits as in the source). Parent: KSSQSVLYESRNKNSVA, WASTRES, QQYHRLPLS. Affinities are written as log10 Kd with Kd in nM; a lower number is a better binder. The mean shown is taken over the replicates in which the pair was detected. Where no diploid with the target was found in any replicate, the entry reads "no signal": below detection, most likely a poor binder, though not proof of it. Empty control strains, which show no peptide, gave a signal in 4% of pairings with all light chain designs; the median was 2.64 and 95% of these signals were weaker than 1.59. No background was subtracted. The parent sequence was in this pool as ten entries: three were never detected, three once, and four in most replicates, with averages from 0.34 to 2.37. The range of this assay differs from that of the first round, and the authors advise against merging the two. The authors averaged sequences with at least three values out of six and counted those with two or fewer as poor binders.

mean, log10 nM | detected | CDR-L1 | CDR-L2 | CDR-L3 | group
no signal | 0/6 | KSSQSVYYESTNCNSVA | WASTRES | QRYHRLPLS | Ctrl
-0.08 | 6/6 | KLPQSCLYESRNKNSVA | NASTRES | QQYHRLPLS | GP_Gen
-0.15 | 6/6 | KDQGSQLYESRNKNAVA | NASTRCD | QQYHRLPLS | GP_Gibbs
0.48 | 6/6 | NLGQKMSLETEQRNSIA | DSTVRED | QQYSRIPLI | En_Gibbs
1.03 | 6/6 | QMTESDHGHQAGVGSIA | DATESME | QQYMHLPLS | En_Gibbs
2.48 | 4/6 | KSSQSVLNESRVKNSVA | NASTRES | QQYHCLPLS | Ctrl
1.42 | 6/6 | TISQITSLFSQTINNVA | EVSTREP | QQYDRLPLS | En_Gen
1.33 | 6/6 | MISQLFMYGSRHYNSVA | QASTRES | QQYDRLPLI | En_HC
-0.24 | 6/6 | KLSQSVLYESRNKNSVA | NASTRSS | QQYHRLPLS | GP_Gen
0.16 | 6/6 | KSSQSVLAESRNKNSVA | DASTRHS | QQYARLPLY | Ctrl
2.00 | 6/6 | TLSHSTDLEEVHKNSIA | DLMTRES | QQYHRLPLS | En_HC
0.06 | 6/6 | HISPMQAMHYEAKNSVA | DTETKLN | QQYIRLPLS | En_Gibbs
1.94 | 6/6 | YFSEQAKTDRNQQYSIA | GMDIREK | QQYGRLPLM | En_Gibbs
1.59 | 6/6 | KSGQGVLYESRNKPSVA | GASTRES | QQYHRLPLS | Rand
no signal | 0/6 | KISQMVRVGSTHSSSIA | EEQTRAK | QQYHRLPLA | En_Gen
1.27 | 6/6 | MISNVLNTLTRVGNNVA | DLSERED | QQYFRLPLS | En_Gen
0.34 | 6/6 | KLGNQEQMNGMATQNVA | AMNTVVD | QEYHRLPLI | En_Gibbs
0.09 | 6/6 | KLSQSHLYESRNFNSVA | NASTRES | QQYHRLPLS | GP_Gen
-0.20 | 6/6 | KSSISYLYESMNKNSVA | GGSTRES | QQYHRLPLS | GP_HC
-0.03 | 6/6 | MVNGIMDHLSKNTNNVA | ETTTREK | QQYERLPLS | En_Gen
1.00 | 5/6 | HISYSMAHMSKNKNSVA | NQQTRES | QQYHRLPLS | En_HC
-0.23 | 6/6 | KSSQSVLYEQRNKNSVA | GASTRES | QFYHRLPLE | Ctrl
1.32 | 6/6 | KLRMMTLTEGYFKNSVA | QASTRAN | QSYHRLPLS | En_HC
0.55 | 6/6 | ALSQLELYESRNWNSVA | NASTREK | QQYHRLPLS | GP_Gibbs
-0.39 | 6/6 | KMEQGVLYESRNKGSVA | QASVRES | QQYHRLPLS | GP_HC
1.02 | 1/6 | KLSMSMRFLTEAKNSIA | ELVTRMS | QQYHRLPLS | En_HC
-0.27 | 6/6 | HLSDSVLYESRNKNSVA | NASTRES | QQYHRLPLQ | GP_HC
0.13 | 6/6 | IAPQSWLYESRNKNSVA | GASTRES | QQYHRLPLI | GP_HC
0.05 | 6/6 | KISQSVLMESRNANSVA | DASTRES | QQYHRLPLS | GP_HC
0.85 | 6/6 | MFSQSVMTGSFYRNSVA | QTSTRES | QQYDRLPLS | En_HC
3.11 | 4/6 | MVYGSMDQAMRTHNSIA | DNQTRES | QQYDRLPLS | En_Gen
-0.04 | 6/6 | KSSQSVDYESRNKNNVA | DASTRES | QQYHRLPLS | GP_Gen
no signal | 0/6 | KKSQSVGYESRNKNSVA | SESTRES | QQYHRLPLS | Ctrl
-0.25 | 6/6 | KLSQSVGYESRMVNNVA | AASTRED | QQYHRLPLS | GP_Gibbs
1.33 | 1/6 | KSSQGVLYESRNKNSVA | WASTRED | QQYHRLPLS | Ctrl
-0.17 | 6/6 | KSEMLYYYGDRNKNSVA | QASTRES | QQYHRLPLS | GP_Gibbs
0.48 | 6/6 | TLSDWEWYGEEQMNRIA | DRSHLEW | QQYGRLPLS | En_Gibbs
0.56 | 6/6 | KVSQSVLYESRNKNAVA | DASTRES | QQYHWLPLS | GP_HC
0.09 | 6/6 | KLSMSWLYESRNKNSVA | EASTRES | QQYHRLPLS | GP_Gen
0.38 | 6/6 | TISQSWFIESRKKNNVA | EMTTREN | QDYDRLPLS | En_HC
0.46 | 6/6 | KVSESVLAESRNKNSVA | KASTRAS | QQYHRLPLS | Ctrl
0.26 | 6/6 | KLMGSSLYDSRNKNSVA | NASTREW | QQYHRLPLS | GP_Gibbs
no signal | 0/6 | KSSQSVLYEQRNKNNVA | WASTRED | QQYHRLSLS | Ctrl
1.52 | 6/6 | HITYGMYVSGRHHSSIA | QAETRAK | QQYDRLPLI | En_Gen
-0.22 | 6/6 | KVSQSYLYESRNKNSVA | NASTREQ | QQYHRLPLS | GP_Gen
-0.03 | 6/6 | KLSGSWLYESRNKNSVA | EASTRES | QQYHRLPLS | GP_Gen
1.18 | 6/6 | KVQMKNLYESRMKNSVA | NASLRES | QQYHRLPLS | GP_Gibbs
1.60 | 5/6 | KSSISYHYESRNKNSVA | EDSTRES | QQYHRLHLS | Rand
2.05 | 5/6 | KSSQSVLAEERQKNSVA | QASTRES | QQYHELPLS | Ctrl
-0.28 | 6/6 | KVSQSVLYESRDKNAVA | DASTRES | QQYHRLPLS | GP_Gen
-0.29 | 6/6 | KVSQSVLGESRNKNSVA | EASTRES | QQYHRLPLS | GP_Gen

The opening 8 entries, copied out:

CDR-L1 | CDR-L2 | CDR-L3 | group | mean, log10 nM | detected
KSSQSVYYESTNCNSVA | WASTRES | QRYHRLPLS | Ctrl | no signal | 0/6
KLPQSCLYESRNKNSVA | NASTRES | QQYHRLPLS | GP_Gen | -0.08 | 6/6
KDQGSQLYESRNKNAVA | NASTRCD | QQYHRLPLS | GP_Gibbs | -0.15 | 6/6
NLGQKMSLETEQRNSIA | DSTVRED | QQYSRIPLI | En_Gibbs | 0.48 | 6/6
QMTESDHGHQAGVGSIA | DATESME | QQYMHLPLS | En_Gibbs | 1.03 | 6/6
KSSQSVLNESRVKNSVA | NASTRES | QQYHCLPLS | Ctrl | 2.48 | 4/6
TISQITSLFSQTINNVA | EVSTREP | QQYDRLPLS | En_Gen | 1.42 | 6/6
MISQLFMYGSRHYNSVA | QASTRES | QQYDRLPLI | En_HC | 1.33 | 6/6

Data: MIT Lincoln Laboratory AlphaSeq set, Li et al. 2023, doi:10.1038/s41467-023-39022-2, as distributed in FLAb.